The target of test [1] is T1, Epithelial Cell Adhesion Molecule (EpCAM) (human, UniProt P16422 24-314).
T1 chain: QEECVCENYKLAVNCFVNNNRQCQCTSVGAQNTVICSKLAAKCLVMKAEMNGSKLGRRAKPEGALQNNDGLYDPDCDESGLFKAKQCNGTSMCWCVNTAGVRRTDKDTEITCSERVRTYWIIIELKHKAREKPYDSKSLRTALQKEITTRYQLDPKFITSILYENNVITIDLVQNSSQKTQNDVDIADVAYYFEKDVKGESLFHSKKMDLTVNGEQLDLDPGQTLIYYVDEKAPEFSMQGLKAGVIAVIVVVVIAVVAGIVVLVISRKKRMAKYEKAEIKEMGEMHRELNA
Nature of the test: flow.

Test [2] concerns the target T2, Epithelial Cell Adhesion Molecule (EpCAM) (human, UniProt P16422 24-314).
T2 construct: whole, on cells; also called 17-1A; KSA
T2 sequence (looked up): T1 chain
Nature of the test: flow cytometry on Cal-27 cells, fold-increase in median fluorescence over PBS control.

B1: VB5-845-DI (de-immunized VB5-845 Fab fragment) (Fab, V domains shown)
VH: EVQLVESGGGLVQPGGSLRLSCAASGYTFTAYGMNWVRQAPGKGLEWMGWINTYTGESTYADSVKGRFTISADTSKNTAYLQMNSLRAEDTAVYYCARFAIKGDYWGQGTLVTVSS
VL: DIQMTQSPSSLSASVGDRVTITCRSTKSLLHSNGITYLYWYQQKPGKAPKLLIYQMSNLASGVPSRFSSSGSGTDFTLTISSLQPEDFATYYCAQNLEIPRTFGTGTKVEIKR
What is called Kd is the equilibrium constant for the complex coming apart. The low end stands for a tighter complex, the high end for a looser complex. The molecule B1 displayed a Kd in test [1] of 1.35 nM. For the same molecule, the binding result in test [2] was “binds”.
